Measurements from PMC7723054.
The other results are listed elsewhere or left out.

T1: LIN28A (human?, UniProt Q9H9Z2 1-209)
T1 sequence: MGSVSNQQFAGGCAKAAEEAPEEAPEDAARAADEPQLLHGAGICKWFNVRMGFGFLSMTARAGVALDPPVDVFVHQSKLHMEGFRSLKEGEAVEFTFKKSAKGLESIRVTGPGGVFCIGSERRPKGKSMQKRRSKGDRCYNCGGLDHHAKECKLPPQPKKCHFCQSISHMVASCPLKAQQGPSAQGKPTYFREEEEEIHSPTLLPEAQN

T2: CIRBP (Homo sapiens, UniProt Q14011 1-172)
T2 sequence: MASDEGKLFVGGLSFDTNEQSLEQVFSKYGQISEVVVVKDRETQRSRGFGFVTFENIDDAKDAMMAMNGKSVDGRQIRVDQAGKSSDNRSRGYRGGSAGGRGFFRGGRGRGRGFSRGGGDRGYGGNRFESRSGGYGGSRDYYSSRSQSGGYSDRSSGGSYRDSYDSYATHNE

T3: DHX36 (Homo sapiens, UniProt Q9H2U1 1-1008)
T3 sequence: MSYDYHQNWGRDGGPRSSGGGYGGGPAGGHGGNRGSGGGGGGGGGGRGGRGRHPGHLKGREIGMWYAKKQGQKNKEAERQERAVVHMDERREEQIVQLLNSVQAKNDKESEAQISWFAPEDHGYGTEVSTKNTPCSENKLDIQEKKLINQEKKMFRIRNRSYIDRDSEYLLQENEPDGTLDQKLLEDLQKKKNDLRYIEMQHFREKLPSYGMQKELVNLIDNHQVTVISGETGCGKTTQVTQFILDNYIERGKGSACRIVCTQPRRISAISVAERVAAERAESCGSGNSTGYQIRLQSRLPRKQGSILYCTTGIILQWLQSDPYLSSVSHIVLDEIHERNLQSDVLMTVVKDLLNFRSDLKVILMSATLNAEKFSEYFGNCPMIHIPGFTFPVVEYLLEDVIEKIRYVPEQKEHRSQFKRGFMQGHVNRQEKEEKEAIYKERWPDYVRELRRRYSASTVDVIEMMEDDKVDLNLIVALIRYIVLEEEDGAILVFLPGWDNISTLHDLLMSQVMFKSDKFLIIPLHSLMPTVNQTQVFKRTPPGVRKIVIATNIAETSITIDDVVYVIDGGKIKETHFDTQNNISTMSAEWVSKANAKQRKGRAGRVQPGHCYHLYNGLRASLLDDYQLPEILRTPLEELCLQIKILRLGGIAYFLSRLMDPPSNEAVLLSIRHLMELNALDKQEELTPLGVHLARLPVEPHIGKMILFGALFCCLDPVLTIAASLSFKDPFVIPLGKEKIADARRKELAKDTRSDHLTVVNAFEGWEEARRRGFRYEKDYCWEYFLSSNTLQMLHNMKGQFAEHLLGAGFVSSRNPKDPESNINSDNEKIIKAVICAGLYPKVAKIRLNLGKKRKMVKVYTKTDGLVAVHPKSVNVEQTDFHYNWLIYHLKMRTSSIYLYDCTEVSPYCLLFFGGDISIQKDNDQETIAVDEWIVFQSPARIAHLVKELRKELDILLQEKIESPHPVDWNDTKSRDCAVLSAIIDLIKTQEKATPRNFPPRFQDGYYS

B1: hsa-mir-4678 (structured_RNA)
RNA: GGGAAACGAAACGUCGUGAAGAUUAAUGGGUGUACGAAGUUUCAGCAUGAUUUUUGGGGUCAGCUGAAGCUUCGUGCAC
B2: hsa-mir-3688-1 (structured_RNA)
RNA: GGGAAGCCUGACUAGAAGCUCUUCGAUCGGUGUACGAAGUUUCAGCCAUAUGUAUGUAUGUAUGUCUGUUACACAUAUGGCUGAAGCUUCGUGCAC
B3: NEAT1_ParasoR_ID11 (structured_RNA)
RNA: GGGAAGCAGGAACACUCCACGUAACUACGGUGUACGAAGUUUCAGCAAAUGGUUCUUAACAUUUGCUGAAGCUUCGUGCAC
B4: hsa-mir-181a-1 (structured_RNA)
RNA: GGGAGCGACUGGCCGUUAUACAGUAAACGGUGUACGAAGUUUCAGCGAGUUUGGAAUUAAAAUCAAAACCGCUGAAGCUUCGUGCAC
B5: hsa-mir-6507 (structured_RNA)
RNA: GGGACGCACAUAGCAACGGUCCACGAAAGGUGUACGAAGUUUCAGCUUUGUAUUGUGGUUCAGUACCAUGCAAAGCUGAAGCUUCGUGCAC
B6: hsa-mir-3128 (structured_RNA)
RNA: GGGAAACCGAUAUCAGGCAUGACAUCUGGGUGUACGAAGUUUCAGCUCAUUUUCCUUAAAAAAUGAGCUGAAGCUUCGUGCAC
B7: hsa-mir-92b (structured_RNA)
RNA: GGGACCAUGCGUGACGGGUCAAAUAAACGGUGUACGAAGUUUCAGCAGUGUUGUUUUUUCCCCCGCCAAUAUUGCUGAAGCUUCGUGCAC
B8: hsa-mir-149 (structured_RNA)
RNA: GGGAAAGUACAGCGGCGCUUAAACUGUCGGUGUACGAAGUUUCAGCCACUCCCGUGCUUGUCCGAGGAGGGAGGGCUGAAGCUUCGUGCAC
B9: hsa-mir-526b_518a-1 (structured_RNA)
RNA: GGGAAUUGACUGCGAGUUUUAACAGGCCGGUGUACGAAGUUUCAGCUUUCUGUUGUCUGAAAGAAGAGAAAGCUGAAGCUUCGUGCAC
B10: hsa-mir-466 (structured_RNA)
RNA: GGGACACGCUGGGGAUGACCAUUUAUUAGGUGUACGAAGUUUCAGCAUAUGUGUGUAUAUAUGUACACAUACGCUGAAGCUUCGUGCAC
B11: hsa-mir-4327 (structured_RNA)
RNA: GGGAAAAUACGAGUAAGCUUUGCCGCAUGGUGUACGAAGUUUCAGCCUGGGAAGAGACCAUGAACAGGUUAGUCCAGGCUGAAGCUUCGUGCAC
B12: hsa-mir-1234 (structured_RNA)
RNA: GGGACAAGCCAUGAGGAUGUACCAGAUUGGUGUACGAAGUUUCAGCCGGGGGGGGCCCGGGGACGGCUUGGGCCUGCCUAGUCGGGCUGAAGCUUCGUGCAC
B13: hsa-mir-3973 (structured_RNA)
RNA: GGGAUGUCGAAGUGAUCGACCGCUCCUUGGUGUACGAAGUUUCAGCUUGUUACAUUUUAGGAUUGCUUGCCCCUUGCUCCAAUGGUGCAGGCAGAAGAAAUGCAAACAAGCUGAAGCUUCGUGCAC
B14: hsa-mir-4317 (structured_RNA)
RNA: GGGAAGUACUAAGCUCAUCGCUGUGAACGGUGUACGAAGUUUCAGCGUUUAUUUUGUAGCGCUGAAGCUUCGUGCAC
B15: hsa-mir-4779 (structured_RNA)
RNA: GGGAAAGUCACACGCUCGCAGCUACGUUGGUGUACGAAGUUUCAGCCCUAGAGUCCAUUCUUUACUCUAGGGCUGAAGCUUCGUGCAC
B16: hsa-mir-544a (structured_RNA)
RNA: GGGAGAUAAGGUUAAGAUGAUGGCAAGGGGUGUACGAAGUUUCAGCGAUUCUGAUUCAGGGACCAAGAUUCGCUGAAGCUUCGUGCAC
B17: hsa-mir-6728 (structured_RNA)
RNA: GGGAUGGCUUCUAAUGAGGACACCACAAGGUGUACGAAGUUUCAGCGAGGGGCUUACUGCCCUGUGGGGCUCUCUGGACCCAGUGCCAUGCUUCUCGCUGAAGCUUCGUGCAC
B18: hsa-mir-1343 (structured_RNA)
RNA: GGGAGAUGACGAACUAUUCCAGCCAGUUGGUGUACGAAGUUUCAGCGGUGGGCCUCUGCUCUGGCCCCUCCGCUGAAGCUUCGUGCAC
B19: hsa-mir-450a-2 (structured_RNA)
RNA: GGGAUACGAAACACCCGGACCUGAUAGAGGUGUACGAAGUUUCAGCUAAUAUGUAAUAUAAAUGUAUUGGCUGAAGCUUCGUGCAC
B20: hsa-mir-5586 (structured_RNA)
RNA: GGGAAGACGAUAAACCAUCUACGUCCCAGGUGUACGAAGUUUCAGCUAUAUGCUUUUUAAAUGGGGCACAGAGCUGAAGCUUCGUGCAC
B21: hsa-mir-3940 (structured_RNA)
RNA: GGGACGCUGGUCCCUCUUAACCUAGAGCGGUGUACGAAGUUUCAGCGCUCUGGGGAUUUGGUCUCACAGCGCUGAAGCUUCGUGCAC
B22: hsa-mir-554 (structured_RNA)
RNA: GGGAAAAGAGUCCGCUUUCCCCGUUGUAGGUGUACGAAGUUUCAGCCAGUACUGGUCUUAGACUGGCUGAAGCUUCGUGCAC
B23: hsa-mir-873 (structured_RNA)
RNA: GGGAGCUGCCCCGCCUGGAGAUAAAAUCGGUGUACGAAGUUUCAGCCUCCUAUUGAAAAUGAACAGGAGGCUGAAGCUUCGUGCAC
B24: hsa-mir-6761 (structured_RNA)
RNA: GGGAACCAUCGAUCUCGGAAAACGUUGAGGUGUACGAAGUUUCAGCGGCAGGUGCCUCCGUGUUGCCGAACCCUCCUGCUGAAGCUUCGUGCAC
B25: hsa-mir-107 (structured_RNA)
RNA: GGGAGAUUCGAUGCAAACUGCACGAGCCGGUGUACGAAGUUUCAGCGCCUUGUGGCAUGGAGUUCAAGCGCUGAAGCUUCGUGCAC

biological target: T1, LIN28A; test: FOREST: bead pull-down of RNA structure library v1, barcode microarray; U1A/LIN28A: 20 mM HEPES pH 7.5, 80 mM KCl, 20 mM NaCl, 10% glycerol, 2 mM DTT, 0.1 ug/uL BSA, 4 C; BG4/CIRBP/DHX36: 10 mM Tris-HCl pH 7.5, 100 mM KCl (or LiCl),; high values mean tight binding

Compared with B1, B2 is lower in binding signal: 0.244 z-score for the first, 0.229 z-score for the second.

Going from B3 to B4, the binding signal falls from 0.244 z-score to 0.239 z-score.

Going from B5 to B6, the binding signal rises from 0.221 z-score to 0.23 z-score.

Compared with B7, B8 is higher in binding signal: 0.227 z-score for the first, 0.244 z-score for the second.

Going from B9 to B10, the binding signal rises from 0.239 z-score to 0.247 z-score.

Going from B11 to B12, the binding signal falls from 0.242 z-score to 0.226 z-score.

First: B13
Second: B14
The binding signal of the first is lower: 0.214 z-score for the first, 0.222 z-score for the second.

First: B15
Second: B16
The binding signal of the first is lower: 0.212 z-score for the first, 0.232 z-score for the second.

Going from B17 to B18, the binding signal rises from 0.228 z-score to 0.245 z-score.

Compared with B19, B20 is higher in binding signal: 0.225 z-score for the first, 0.247 z-score for the second.

Compared with B21, B22 is lower in binding signal: 0.247 z-score for the first, 0.225 z-score for the second.

Compared with B23, B24 is lower in binding signal: 0.239 z-score for the first, 0.228 z-score for the second.

B25 showed a binding signal of 0.22 z-score.

biological target: T2, CIRBP; test: as above

First: B1
Second: B2
The binding signal of the first is higher: 1.1 z-score for the first, -0.155 z-score for the second.

Compared with B3, B4 is lower in binding signal: -0.284 z-score for the first, -0.634 z-score for the second.

First: B5
Second: B6
The binding signal of the first is lower: -0.153 z-score for the first, 0.0592 z-score for the second.

Going from B7 to B8, the binding signal falls from 0.53 z-score to -0.658 z-score.

Going from B9 to B10, the binding signal falls from 0.709 z-score to -0.458 z-score.

Going from B11 to B12, the binding signal rises from 0.0538 z-score to 0.706 z-score.

Going from B13 to B14, the binding signal rises from -0.262 z-score to 0.741 z-score.

Going from B15 to B16, the binding signal rises from -1.16 z-score to 1.2 z-score.

First: B17
Second: B18
The binding signal of the first is lower: -1.02 z-score for the first, -0.19 z-score for the second.

Compared with B19, B20 is higher in binding signal: -0.69 z-score for the first, 0.434 z-score for the second.

Going from B21 to B22, the binding signal falls from -0.277 z-score to -0.598 z-score.

First: B23
Second: B24
The binding signal of the first is higher: 0.454 z-score for the first, 0.224 z-score for the second.

With B25 the binding signal was -0.00137 z-score.

biological target: T3, DHX36; test: as above

Compared with B1, B2 is lower in binding signal: -0.106 z-score for the first, -0.799 z-score for the second.

First: B3
Second: B4
The binding signal of the first is higher: 0.0905 z-score for the first, -0.858 z-score for the second.

Going from B5 to B6, the binding signal falls from -0.741 z-score to -1.17 z-score.

Going from B7 to B8, the binding signal falls from -0.0495 z-score to -0.475 z-score.

Going from B9 to B10, the binding signal rises from -0.448 z-score to -0.305 z-score.

Going from B11 to B12, the binding signal rises from -0.0255 z-score to 0.508 z-score.

Compared with B13, B14 is lower in binding signal: 0.655 z-score for the first, -0.207 z-score for the second.

Going from B15 to B16, the binding signal rises from 0.0924 z-score to 1.02 z-score.

First: B17
Second: B18
The binding signal of the first is higher: 0.949 z-score for the first, 0.0689 z-score for the second.

Compared with B19, B20 is higher in binding signal: -0.747 z-score for the first, -0.215 z-score for the second.

Going from B21 to B22, the binding signal falls from -0.194 z-score to -0.304 z-score.

Compared with B23, B24 is lower in binding signal: 0.233 z-score for the first, -0.506 z-score for the second.

B25 was tested, and the binding signal was -0.493 z-score.
